In ChEMBL document CHEMBL4000248, “Synthesis and biological evaluation of cyclic imides incorporating benzenesulfonamide moieties as carbonic anhydrase I, II, IV and IX inhibitors” (Bioorg Med Chem, 2017):

Target: Carbonic anhydrase 9 (Homo sapiens, UniProt Q16790)
Experiment: Inhibition of recombinant human carbonic anhydrase 9 incubated for 10 mins prior to testing by stopped flow CO2 hydrase assay

Ki: 0.284 µM
Compound: NS(=O)(=O)c1ccc(CCN2C(=O)c3c(Cl)c(Cl)c(Cl)c(Cl)c3C2=O)cc1
